# PMC4032197 (Journal of Medicinal Chemistry, 2014)
# Sequences of proteins named here, by UniProt entry; tags and fusion partners are left off. A change or cut given only in a name is not applied to a line headed by its entry.
# UniProt P43116: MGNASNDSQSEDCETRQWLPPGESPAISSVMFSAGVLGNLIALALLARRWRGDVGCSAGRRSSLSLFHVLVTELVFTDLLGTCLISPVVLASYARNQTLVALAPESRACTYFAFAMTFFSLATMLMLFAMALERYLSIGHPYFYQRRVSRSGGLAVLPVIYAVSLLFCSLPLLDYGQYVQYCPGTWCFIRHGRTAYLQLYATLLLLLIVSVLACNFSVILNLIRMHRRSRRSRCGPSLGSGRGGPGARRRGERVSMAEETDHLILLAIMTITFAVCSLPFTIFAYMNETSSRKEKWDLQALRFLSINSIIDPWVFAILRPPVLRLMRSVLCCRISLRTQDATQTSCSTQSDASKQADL
# What was measured:
# C6 glioma cells = details: in vitro therapeutic index
# [1] = PK study in C57BL/6 mice; cited from earlier work
# human EP2 receptors = human EP2 receptors (Homo sapiens, UniProt P43116)
smiles,measurement,setting,value
Cc1cc(/C=C/C(=O)NCCn2c(C)cc3ccccc32)cc(C)c1F [5c],therapeutic index CC50/KB(EP2),C6 glioma cells,108 000
"COc1cc(/C=C/C(=O)NCCn2c(C(F)(F)F)cc3ccccc32)cc(OC)c1OC [5d, (E)-N-(2-(2-(Trifluoromethyl)-1H-indol-1-yl)ethyl)-3-(3,4,5-trimethoxyphenyl)acrylamide]",plasma half-life,[1],1.7 h
COc1cc(CCC(=O)NCCn2c(C)cc3ccccc32)cc(OC)c1OC [5v],fold less EP2 potency in comparison to 5a,human EP2 receptors,90 fold
